Earlier results as cited in US4251439A, “Pharmacologically active peptides” (Eli Lilly and Company, priority 1979, dated 1981).

Legend:
[1] = administered parenterally; cited from earlier work
mice = details: administration intracerebroventricularly; cited from earlier work

For “H-Tyr-Gly-Gly-Phe-Leu-OH [leucine enkephalin]”, which useful analgesic activity [1] is on record?
The useful analgesic activity was “practically devoid of any useful analgesic activity”.

And the analgesic activity (mice)?
The analgesic activity was “exhibit analgesic activity”.
